Measurements from ChEMBL document CHEMBL1144008, “Synthesis, nitric oxide release, and anti-leukemic activity of glutathione-activated nitric oxide prodrugs: Structural analogues of PABA/NO, an anti-cancer lead compound” (Bioorg Med Chem, 2008).

Assay: Nitric oxide release at 100 to 150 nM in pH7.4 in presence of GSH
Format: functional
In short: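 Performed in 0.1 M pH 7.4 phosphate buffer with 1 mM GSH, sparged with inert gas until detector baseline was steady. Prodrug stock injected to final 100–150 nM. NO release followed at 37 °C. Area under the release curve integrated to give mol NO released per mol compound.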

For `CN(C)/[N+]([O-])=N/Oc1cc(OC(=O)c2ccc([N+](=O)[O-])cc2)c([N+](=O)[O-])cc1[N+](=O)[O-]`, the Activity was 0%.
